ChEMBL document CHEMBL3616427, “Design, synthesis, and biological evaluation of amide imidazole derivatives as novel metabolic enzyme CYP26A1 inhibitors” (Bioorg Med Chem, 2015)

Biological target: T1, Cytochrome P450 26A1 (Homo sapiens, UniProt O43174)
T1 sequence (O43174 whole entry): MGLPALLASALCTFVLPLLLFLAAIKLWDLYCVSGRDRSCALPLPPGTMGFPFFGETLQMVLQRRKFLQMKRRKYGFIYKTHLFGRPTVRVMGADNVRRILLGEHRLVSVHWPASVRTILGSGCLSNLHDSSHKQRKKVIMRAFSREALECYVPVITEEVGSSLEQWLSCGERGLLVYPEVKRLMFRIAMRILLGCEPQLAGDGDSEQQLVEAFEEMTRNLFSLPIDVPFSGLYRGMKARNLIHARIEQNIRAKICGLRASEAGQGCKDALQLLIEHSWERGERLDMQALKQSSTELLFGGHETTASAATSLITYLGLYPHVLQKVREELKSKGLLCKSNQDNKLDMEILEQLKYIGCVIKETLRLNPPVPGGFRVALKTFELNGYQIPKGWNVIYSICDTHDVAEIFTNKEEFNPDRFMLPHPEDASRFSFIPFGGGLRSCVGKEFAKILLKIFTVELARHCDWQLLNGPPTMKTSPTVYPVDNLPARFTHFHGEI
Test: Inhibition of CYP26A1 in ATRA-induced human HL60 cell microsomes incubated for 30 mins in dark condition with NADPH and ATRA by HPLC method
Format: cell-based, HL-60

IC50: 890 nM
Structure (SMILES): Clc1cccc(C(c2ccc3[nH]cnc3c2)n2ccnc2)c1 (stereo unspecified) [LIAROZOLE]
